Here are results for one compound from ChEMBL document CHEMBL3865825, “Discovery of novel Tetrahydrobenzo[b]thiophene and pyrrole based scaffolds as potent and selective CB2 receptor ligands: The structural elements controlling binding affinity, selectivity and functionality” (Eur J Med Chem, 2016).

Amino acid sequences for entries named in this document (tags omitted).
UniProt P21554, whole entry: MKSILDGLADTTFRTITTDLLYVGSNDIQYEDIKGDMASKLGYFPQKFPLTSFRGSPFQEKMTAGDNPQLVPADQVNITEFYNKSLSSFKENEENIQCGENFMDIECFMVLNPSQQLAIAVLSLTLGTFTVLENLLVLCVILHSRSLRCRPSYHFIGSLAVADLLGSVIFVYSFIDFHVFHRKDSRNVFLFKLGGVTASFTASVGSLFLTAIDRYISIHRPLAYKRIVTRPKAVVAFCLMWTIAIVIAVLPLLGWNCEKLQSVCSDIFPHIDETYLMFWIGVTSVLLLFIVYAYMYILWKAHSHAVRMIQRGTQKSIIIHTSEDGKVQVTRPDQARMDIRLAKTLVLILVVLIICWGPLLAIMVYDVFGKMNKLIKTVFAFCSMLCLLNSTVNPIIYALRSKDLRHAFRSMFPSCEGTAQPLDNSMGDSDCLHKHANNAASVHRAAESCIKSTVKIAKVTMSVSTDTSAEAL

For this test, the target named is Cannabinoid receptor 1 (Homo sapiens, UniProt P21554). Nature of the test: Displacement of [3H]-CP-55940 from human CB1 receptor expressed in HEK293 cell membranes after 90 mins by radioligand binding assay. A general note: Displacement assays read how much labelled ligand stays bound in the presence of the test substance.

Each structure is given as a SMILES string.

Regarding `Cc1ccc(Cn2nc(C(=O)N[C@@H]3C(C)(C)[C@@H]4CC[C@@]3(C)C4)cc2-c2ccc(Cl)c(C)c2)cc1`, the inhibition constant Ki (as a rule, the equilibrium dissociation constant of an inhibitor or competing ligand from its target) was determined as 117 nM.
